Measurements as given in US20140100156A1 (SANOFI, priority 2012, published 2014).

By UniProt entry, the sequences of proteins in these tests, tags left out. Residues count along the entry.
UniProt P47871, 26-477: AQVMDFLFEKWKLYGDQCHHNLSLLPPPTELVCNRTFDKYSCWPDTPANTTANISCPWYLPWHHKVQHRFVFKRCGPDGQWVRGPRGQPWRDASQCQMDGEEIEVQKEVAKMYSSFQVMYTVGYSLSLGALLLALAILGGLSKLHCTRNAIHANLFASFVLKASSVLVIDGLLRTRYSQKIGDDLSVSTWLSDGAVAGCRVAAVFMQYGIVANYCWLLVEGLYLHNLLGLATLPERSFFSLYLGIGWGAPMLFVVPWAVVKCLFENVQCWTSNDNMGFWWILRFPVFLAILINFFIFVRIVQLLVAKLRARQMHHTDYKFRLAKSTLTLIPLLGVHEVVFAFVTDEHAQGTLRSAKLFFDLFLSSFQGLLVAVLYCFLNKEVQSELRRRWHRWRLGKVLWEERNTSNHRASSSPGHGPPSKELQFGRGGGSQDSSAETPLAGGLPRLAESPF
UniProt P43220, 24-463: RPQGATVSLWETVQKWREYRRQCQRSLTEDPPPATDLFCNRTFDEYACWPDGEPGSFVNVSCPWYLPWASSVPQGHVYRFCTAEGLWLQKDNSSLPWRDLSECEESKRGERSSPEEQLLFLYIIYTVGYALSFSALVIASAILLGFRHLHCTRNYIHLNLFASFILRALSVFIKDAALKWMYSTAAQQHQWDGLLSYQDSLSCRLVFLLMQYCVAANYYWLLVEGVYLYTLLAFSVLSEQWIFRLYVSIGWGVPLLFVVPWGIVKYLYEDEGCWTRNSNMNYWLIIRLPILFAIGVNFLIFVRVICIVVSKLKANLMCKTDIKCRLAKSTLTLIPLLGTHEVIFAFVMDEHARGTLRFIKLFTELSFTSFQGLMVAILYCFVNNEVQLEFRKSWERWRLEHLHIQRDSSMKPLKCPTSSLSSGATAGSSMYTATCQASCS

Key:
[1] = molecular target: T1, human glucagon receptor (Homo sapiens, UniProt P47871); assay: cAMP response (HTRF) of HEK-293 cells stably expressing human glucagon receptor; assay type: cell-based; settings: Table 5; cAMP, HEK-293; read-out: EC50 hGlucagon-R
T1 construct: expressed in transfected cells; host or cells: HEK-293

[2] = molecular target: T2, human GLP-1 receptor (Homo sapiens, UniProt P43220); assay: cAMP response (HTRF) of HEK-293 cells stably expressing human GLP-1 receptor; assay type: cell-based; settings: Table 5; cAMP, HEK-293; read-out: EC50 hGLP-1R
T2 construct: expressed in transfected cells; host or cells: HEK-293

[3] = in vivo; set-up: species or system mice; settings: mouse, sc, 1 mg/kg
Experimental: Mice were dosed 1 mg/kg subcutaneously (s.c.). The mice were sacrificed and blood samples were collected after 0.25, 1, 2, 4, 8, 16 and 24 hours post application. Plasma samples were analysed after protein precipitation via liquid chromatography mass spectrometry (LC/MS). PK parameters and half-life were calculated using WinonLin Version 5.2.1 (non-compartment model).
Pharmacokinetic profiles were determined as described in Methods.

[4] = physchem; assay type: physicochemical
Experimental: Prior to the testing of solubility and stability of a peptide batch, its content was determined. Therefore, two parameters were investigated, its purity (HPLC-UV) and the amount of salt load of the batch (ion chromatography). Since synthesized peptides contain primarily trifluoroacetate anions, only anion chromatography was performed.
. Therefore, solutions from solid samples were prepared in different buffer systems with a concentration of 1.0 mg/mL compound based on the previously determined content. HPLC-UV was performed after 2 h of gentle agitation from the supernatant, which was obtained by 20 min of centrifugation at 4000 rpm.
This analysis also served as starting point (t0) for the stability testing.
Instrument: Agilent 1100, column: X-Bridge C18 3.5 μm 2.1×150 mm (Waters), eluent: A: H20+500 ppm TFA/B: Methanol, flow: 0.55 mL/min, gradient: 0-5 min: 10-60% B; 5-15 min: 60-99% B; detection: 214 nm.

| SMILES | EC50 [1] | EC50 [2] | Cmax [3] | half-life [3] | solubility at 2 h ([4]; pH 4.5) | solubility at 2 h ([4]; pH 7.4) |
| --- | --- | --- | --- | --- | --- | --- |
| CCCCCCCCCCCCCCCC(=O)NCCCC[C@H](NC(=O)[C@H](CCC(N)=O)NC(=O)[C@H](CCCCN)NC(=O)[C@H](CO)NC(=O)[C@H](CC(C)C)NC(=O)[C@H](CC(=O)O)NC(=O)[C@H](CO)NC(=O)[C@@H](NC(=O)[C@H](Cc1ccccc1)NC(=O)[C@@H](NC(=O)CNC(=O)[C@H](CCC(N)=O)NC(=O)C(C)(C)NC(=O)[C@@H](N)Cc1c[nH]cn1)[C@@H](C)O)[C@@H](C)O)C(=O)N[C@@H](CCC(=O)O)C(=O)N[C@@H](CO)C(=O)N[C@@H](CCCNC(=N)N)C(=O)N[C@@H](CCCNC(=N)N)C(=O)N[C@@H](C)C(=O)N[C@@H](CCC(N)=O)C(=O)N[C@@H](CC(=O)O)C(=O)N[C@@H](Cc1ccccc1)C(=O)N[C@H](C(=O)N[C@@H](CCC(=O)O)C(=O)N[C@@H](Cc1c[nH]c2ccccc12)C(=O)N[C@@H](CC(C)C)C(=O)N[C@@H](CCCCN)C(=O)N[C@@H](C)C(=O)NCC(=O)NCC(=O)N1CCC[C@H]1C(=O)N[C@@H](CO)C(=O)N[C@@H](CO)C(=O)NCC(=O)N[C@@H](C)C(=O)N1CCC[C@H]1C(=O)N1CCC[C@H]1C(=O)N1CCC[C@H]1C(=O)N[C@@H](CO)C(N)=O)[C@@H](C)CC [compound 5] | 0.109 nM | 0.011 nM | 3180 ng/mL | 1.7 h |  |  |
| CCCCCCCCCCCCCCCC(=O)N[C@@H](CCC(=O)NCCCC[C@H](NC(=O)[C@H](CCC(N)=O)NC(=O)[C@H](CCCCN)NC(=O)[C@H](CO)NC(=O)[C@H](CC(C)C)NC(=O)[C@H](CC(=O)O)NC(=O)[C@H](CO)NC(=O)[C@@H](NC(=O)[C@H](Cc1ccccc1)NC(=O)[C@@H](NC(=O)CNC(=O)[C@H](CCC(N)=O)NC(=O)[C@@H](CO)NC(=O)[C@@H](N)Cc1c[nH]cn1)[C@@H](C)O)[C@@H](C)O)C(=O)N[C@@H](CCC(=O)O)C(=O)N[C@@H](CO)C(=O)N[C@@H](CCCNC(=N)N)C(=O)N[C@@H](CCCNC(=N)N)C(=O)N[C@@H](C)C(=O)N[C@@H](CCC(N)=O)C(=O)N[C@@H](CC(=O)O)C(=O)N[C@@H](Cc1ccccc1)C(=O)N[C@H](C(=O)N[C@@H](CCC(=O)O)C(=O)N[C@@H](Cc1c[nH]c2ccccc12)C(=O)N[C@@H](CC(C)C)C(=O)N[C@@H](CCCCN)C(=O)N[C@@H](CCCCN)C(=O)NCC(=O)NCC(=O)N1CCC[C@H]1C(=O)N[C@@H](CO)C(=O)N[C@@H](CO)C(=O)NCC(=O)N[C@@H](C)C(=O)N1CCC[C@H]1C(=O)N1CCC[C@H]1C(=O)N1CCC[C@H]1C(=O)N[C@@H](CO)C(N)=O)[C@@H](C)CC)C(=O)O [compound 85] | 0.0104 nM | 0.0081 nM |  |  | > 1000 µg/mL | > 969 µg/mL |
| CCCCCCCCCCCCCCCC(=O)N[C@@H](CCC(=O)NCCCC[C@H](NC(=O)[C@H](CCC(N)=O)NC(=O)[C@H](CCCCN)NC(=O)[C@H](CO)NC(=O)[C@H](CC(C)C)NC(=O)[C@H](CC(=O)O)NC(=O)[C@H](CO)NC(=O)[C@@H](NC(=O)[C@H](Cc1ccccc1)NC(=O)[C@@H](NC(=O)CNC(=O)[C@H](CCC(N)=O)NC(=O)[C@@H](CO)NC(=O)[C@@H](N)Cc1c[nH]cn1)[C@@H](C)O)[C@@H](C)O)C(=O)N[C@@H](CCC(=O)O)C(=O)N[C@@H](CO)C(=O)N[C@@H](CCCNC(=N)N)C(=O)N[C@@H](C)C(=O)N[C@@H](C)C(=O)NC(C)(C)C(=O)N[C@@H](CC(C)C)C(=O)N[C@@H](Cc1ccccc1)C(=O)N[C@H](C(=O)N[C@@H](CCC(=O)O)C(=O)N[C@@H](Cc1c[nH]c2ccccc12)C(=O)N[C@@H](CC(C)C)C(=O)N[C@@H](CCCCN)C(=O)N[C@@H](CC(N)=O)C(=O)NCC(=O)NCC(=O)N1CCC[C@H]1C(=O)N[C@@H](CO)C(=O)N[C@@H](CO)C(=O)NCC(=O)N[C@@H](C)C(=O)N1CCC[C@H]1C(=O)N1CCC[C@H]1C(=O)N1CCC[C@H]1C(=O)N[C@@H](CO)C(N)=O)[C@@H](C)CC)C(=O)O [compound 121] | 0.0237 nM | 0.0061 nM |  |  | > 1000 µg/mL | > 980 µg/mL |
